Measured values: ChEMBL document CHEMBL1121436, “2,4-Diamino-5-benzylpyrimidines as antibacterial agents. 4. 6-Substituted trimethoprim derivatives from phenolic Mannich intermediates. Application to the synthesis of trimethoprim and 3,5-dialkylbenzyl analogues” (J Med Chem, 1980)
pIC50: −log10 of the molar value.

biological target: T1, Dihydrofolate reductase (Rattus norvegicus, UniProt Q920D2); assay: Inhibition against dihydrofolate reductase enzyme of rat liver; settings: read-out: I50
T1 sequence (Q920D2 whole entry): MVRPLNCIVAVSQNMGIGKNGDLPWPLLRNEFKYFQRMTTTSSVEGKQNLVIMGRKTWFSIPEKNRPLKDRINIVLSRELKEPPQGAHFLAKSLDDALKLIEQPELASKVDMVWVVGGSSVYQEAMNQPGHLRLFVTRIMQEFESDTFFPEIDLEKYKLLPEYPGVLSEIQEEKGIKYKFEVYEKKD

| Structure (SMILES) | pIC50 |
| --- | --- |
| COc1cc(Cc2c(N)nc(N)nc2SC)cc(OC)c1OC | < 3.35 |
| CCc1cc(Cc2c(N)nc(N)nc2SC)cc(CC)c1OC | < 4.40 |
| COc1cc(Cc2c(N)nc(N)nc2Oc2ccccc2)cc(OC)c1OC | < 4.35 |
